In patent US20160220669A1 (Hoffmann-La Roche, published 2016):
Positions count from the first letter of the chain named.

B1: hMab 2F11-e7 (antibody, V domains shown)
VH: QVQLVQSGAEVKKPGASVKVSCKASGYTFTSYDISWVRQAPGQGLEWMGVIWTDGGTNYAQKLQGRVTMTTDTSTSTAYMELRSLRSDDTAVYYCARDQRLYFDVWGQGTTVTVSS
VL: DIQMTQSPSSLSASVGDRVTITCRASEDVNTYVSWYQQKPGKAPKLLIYAASNRYTGVPSRFSGSGSGTDFTLTISSLQPEDFATYYCQQSFSYPTFGQGTKLEIK
B2: hMab 2F11-f12 (antibody, V domains shown)
VH: QVQLVQSGAEVKKPGSSVKVSCKASGFSLTTYDISWVRQAPGQGLEWMGVIWTDGGTNYNSPFMSRVTITKDESTSTAYMELSSLRSEDTAVYYCVRDQRLYFDVWGQGTTVTVSS
VL: B1 VL with A50G, N53S, R54L, Y55Q, T56S, Q89G
B3: Mab 2E10 (antibody, V domains shown)
VH: QVQLKESGPGLVAPSKSLSITCTVSGSSLDSFDISWIRQSPGKGLEWLGVIWTGGGTNYNSGFMSRLRITKDNSKSQVLLKMNSLQSDDTAIYYCVRDPRLYFDVWGAGTTVTVSS
VL: NIVMTQSPKSMSMSVGERVTLSCKASEDVVTYVSWYQQKPDQSPKLLIYGASNRYTGVPDRFTGSGSATDFTLTISSVQAEDLADYYCGQTFSYPTFGTGTKLEIK
notes: Murine monoclonal antibody from hybridoma
B4: Mab 2H7 (antibody, V domains shown)
VH: B3 VH with S40P, T70S, L79F, N83S
VL: B3 VL with D41E, V78I
notes: as for B3
B5: Mab 1G10 (antibody, V domains shown)
VH: RVQLKESGPGLVAPSQSLSITCTVSGFSLTSYDISWIRQSPGKGLEWLGVIWSGGGTNYNSPFMSRLRISKDDSRSQVFLKVNRLQTDDTAIYYCVRDLRLYFDVWGAGTTVTVSS
VL: B3 VL with N1K, M13V, T20S, V30G, D41E, A51S, Y87S, T91S, S93T
notes: as for B3
B6: Mab 2F11 (antibody, V domains shown)
VH: B5 VH with R1Q, S31T, S53T, G54D, R68S, S70R, D73N, R75K, V82M, L99Q
VL: B3 VL with S22N, V30N, K39Q, D41E, S65G, A68T, Y87F, T91S
notes: Murine monoclonal antibody from hybridoma (NMRI mice); also called <CSF-1R>Mab 2F11; muMab 2F11

Molecular target: T1, human wildtype CSF-1R (full-length) (human, UniProt P07333 20-972)
Assay: cell-based or functional assay

Row | Binder | IC50 (survival of human monocytes with huCSF-1, CellTiterGlo) [µg/mL]
1 | B1 | 0.04
2 | B2 | 0.09

Molecular target: T1, human wildtype CSF-1R (full-length)
Assay: cell-based or functional assay
Remark: another data set of the same source

Row | Binder | wtCSF-1R IC50 (cell viability, CellTiterGlo, 3D culture) [µg/mL]
3 | B3 | 0.49
4 | B4 | 0.31
5 | B5 | 0.29
6 | B6 | 1.1

Molecular target: human mutant CSF-1R L301S Y969F (human, UniProt P07333 20-972)
Assay: cell-based or functional assay

Row | Binder | Mutant CSF-1R IC50 (cell viability, CellTiterGlo, 3D culture) [µg/mL]
7 | B3 | 4.9
8 | B4 | 5.3
9 | B5 | 14.2
10 | B6 | 8

Molecular target: T1, human wildtype CSF-1R (full-length)
Assay: cell-based or functional assay
Remark: another data set of the same source

Row | Binder | IC50 (survival of human monocytes with huCSF-1, CellTiterGlo) [µg/mL]
11 | B3 | 0.06
12 | B4 | 0.03
13 | B5 | 0.06
14 | B6 | 0.08

Molecular target: T2, human CSF-1R fragment delD4 (comprising the extracellular subdomains D1-D3 and D5) (human, UniProt P07333 20-512)
T2 construct: Obtained as dimer and monomer; 'The dimeric form was used for all experiments'; Cleaved from Fc-His by PreScission protease; also called hCSF-1R-delD4
Assay: SPR (Biacore T100), 25 C, reference-subtracted signal of nonbinding antibody

Row | Binder | binding signal [RU] before being set as 0 [RU]
15 | B3 | -2
16 | B4 | -9
17 | B5 | -6
18 | B6 | -3

Molecular target: T3, Human CSF-1R Extracellular Domain (CSF-1R-ECD) (R&D-Systems 329-MR or subcloned … (human, UniProt P07333 20-512))
T3 construct: not shown: tag or fusion part (HisAvitag, or as in the bought product)
Assay: SPR (Biacore A100), 35 C, antibody captured by anti mouse Fc-gamma, CSF-1R-ECD in solution, Langmuir 1:1

Row | Binder | t½ [h]
19 | B3 | 6.48
20 | B4 | 6.17
21 | B5 | 3.07
22 | B6 | 3.72

Molecular target: T2, human CSF-1R fragment delD4 (comprising …)
Assay: SPR, antibody as analyte at 10 nM over immobilized CSF-1R fragment, report point 10 s after end of injection, reference subtracted

Row | Binder | binding signal [RU] before being set as 0 [RU]
23 | B3 | -2
24 | B4 | -9
25 | B5 | -6
26 | B6 | -3
